Laboratory results taken from patent US8211885B2, “Cyclic indole-3-carboxamides, their preparation and their use as pharmaceuticals” (Sanofi-Aventis, priority 2008, dated 2012).

Chains of the proteins cited; added tags and fusions are not shown. Residues count along the entry.
UniProt P00797, 67-406 limits assumed: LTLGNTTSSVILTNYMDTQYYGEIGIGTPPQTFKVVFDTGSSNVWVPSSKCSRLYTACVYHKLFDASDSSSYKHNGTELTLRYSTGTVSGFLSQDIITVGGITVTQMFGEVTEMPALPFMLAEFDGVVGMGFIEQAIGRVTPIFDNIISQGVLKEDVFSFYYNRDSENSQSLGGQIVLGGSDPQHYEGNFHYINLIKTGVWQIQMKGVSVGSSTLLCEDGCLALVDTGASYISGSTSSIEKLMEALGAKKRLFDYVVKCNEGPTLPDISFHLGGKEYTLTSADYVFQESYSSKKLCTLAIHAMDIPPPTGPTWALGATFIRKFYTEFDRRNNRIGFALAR

These compounds were tested against Recombinant human renin (Homo sapiens, UniProt P00797).

**Q.** Cc1c(F)cccc1Cc1c(C(=O)N2CCNCC2)c2ccccc2n1-c1ccc(O)nc1 was tested. Which IC50 did it give?
**A.** 9400 nM

**Q.** For COCCCOc1cccc(-n2c(Oc3ccccc3)c(C(=O)N3CCNCC3)c3ccccc32)c1, which IC50 is on record?
**A.** 760 nM

**Q.** For Cc1ccc(F)cc1Oc1c(C(=O)N2CCNCC2)c2ccc(O)cc2n1-c1ccc(F)cc1, which IC50 is on record?
**A.** 18 nM

**Q.** For Cc1c(F)cccc1Cc1cc2c(cc1O)c(C(=O)N1CCNCC1)c(Cc1cccc(F)c1C)n2-c1ccccc1, which IC50 is on record?
**A.** 430 nM

**Q.** O=C(c1c(Oc2ccccc2)n(-c2ccccc2)c2cc(Cl)ccc12)N1CCNCC1 was tested. Which IC50 did it give?
**A.** 540 nM
